Values quoted from earlier work, collected in patent US20080032965A1, “Method for enhancing cognitive function” (priority 2006, published 2008).
Read-outs that look alike come from different tables or passages of the source.

By UniProt entry, the sequences of proteins in these tests, tags left out.
UniProt P08908, whole entry: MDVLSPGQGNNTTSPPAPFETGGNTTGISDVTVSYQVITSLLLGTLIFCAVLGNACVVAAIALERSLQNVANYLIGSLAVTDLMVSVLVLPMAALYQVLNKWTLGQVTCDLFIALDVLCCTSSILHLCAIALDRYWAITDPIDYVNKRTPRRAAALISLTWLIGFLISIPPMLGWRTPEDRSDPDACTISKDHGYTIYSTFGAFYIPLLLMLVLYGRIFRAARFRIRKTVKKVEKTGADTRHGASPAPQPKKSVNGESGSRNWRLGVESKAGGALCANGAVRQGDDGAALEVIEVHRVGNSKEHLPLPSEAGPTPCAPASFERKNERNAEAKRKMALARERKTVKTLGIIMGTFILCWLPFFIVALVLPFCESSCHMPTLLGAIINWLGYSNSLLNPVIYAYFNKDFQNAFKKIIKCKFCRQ
UniProt P28223, whole entry: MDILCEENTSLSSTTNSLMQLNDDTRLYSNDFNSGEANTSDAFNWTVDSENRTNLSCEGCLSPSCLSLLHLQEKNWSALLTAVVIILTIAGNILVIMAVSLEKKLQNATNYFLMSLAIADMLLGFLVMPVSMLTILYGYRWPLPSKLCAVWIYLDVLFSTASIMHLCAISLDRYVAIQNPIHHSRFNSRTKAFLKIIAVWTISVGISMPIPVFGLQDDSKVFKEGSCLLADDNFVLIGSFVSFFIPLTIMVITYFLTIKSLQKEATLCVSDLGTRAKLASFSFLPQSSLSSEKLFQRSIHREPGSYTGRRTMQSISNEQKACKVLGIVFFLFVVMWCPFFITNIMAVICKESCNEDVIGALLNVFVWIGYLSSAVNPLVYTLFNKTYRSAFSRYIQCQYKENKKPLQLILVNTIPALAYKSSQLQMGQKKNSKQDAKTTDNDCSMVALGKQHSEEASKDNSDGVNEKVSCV

What was measured:
[1] = target: 5-HT1A (Homo sapiens, UniProt P08908); conditions: read-out: Ki (nM) 5-HT1A, cited from earlier work
[2] = target: 5-HT2A (Homo sapiens, UniProt P28223); conditions: read-out: Ki (nM) 5-HT2A; Table 1; cited from earlier work

| SMILES | Ki ([1]; Table 4) | Ki ([1]; Table 1) | Ki [2] |
| --- | --- | --- | --- |
| Nn1c(SCCCN2CCN(c3ccccc3[N+](=O)[O-])CC2)nc2sccc2c1=O | 3 nM | – | – |
| O=c1c2ccccc2ncn1CCCN1CCN(c2cccc(Cl)c2)CC1 | – | 253 nM | 16 nM |
| O=c1c2ccccc2ncn1CCCCN1CCN(c2cccc(Cl)c2)CC1 | – | 50 nM | 68 nM |
| COc1ccccc1N1CCN(CCCCn2cnc3ccccc3c2=O)CC1 | – | 36 nM | 566 nM |
| COc1ccccc1N1CCN(CCCn2c(=O)c3ccccc3c(=O)n2-c2ccccc2)CC1 | – | 30 nM | 300 nM |
| COc1ccccc1N1CCN(CCCCn2c(=O)c3ccccc3c(=O)n2-c2ccccc2)CC1 | – | 43 nM | 375 nM |
